System: Human prostate cancer cell line (PC-3)
Assay: MTT cell proliferation assay, cytotoxicity and GI50, PC-3
Details: human cancer cell lines (PC-3 and HT-29, Table 1); statement in words

Row | Compound | cytotoxic activity compared with tubulysin A
1 | CCCCNC(=O)CN(C(=O)[C@@H](NC(=O)[C@H]1CCCCN1C)[C@@H](C)CC)[C@H](C[C@@H](OC(C)=O)c1nc(C(=O)N[C@@H](Cc2ccccc2)C[C@H](C)C(=O)O)cs1)C(C)C [tubugi A] | almost identical to that of tubulysin A
2 | CC[C@H](C)[C@H](NC(=O)[C@H]1CCCCN1C)C(=O)N(CC(=O)NC(C)C)[C@H](C[C@@H](OC(C)=O)c1nc(C(=O)N[C@@H](Cc2ccccc2)C[C@H](C)C(=O)O)cs1)C(C)C [tubugi B] | almost identical to that of tubulysin A
3 | CCCCNC(=O)C(C)N(C(=O)[C@@H](NC(=O)[C@H]1CCCCN1C)[C@@H](C)CC)[C@H](C[C@@H](OC(C)=O)c1nc(C(=O)N[C@@H](Cc2ccccc2)C[C@H](C)C(=O)O)cs1)C(C)C (stereo partly drawn) [tubugi D] | almost identical to that of tubulysin A

Reference: patent publication US9371358B2 (priority 2010, dated 2016)
